These results are taken from PubChem BioAssay AID743397 (Broad Institute, 2014).

Molecules are shown by their SMILES. The entries are a selection whose mix differs from that of the whole data set. The source made the active and inactive calls.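 Rule for the calls: active = mean replicate inhibition of at least 30% and at least 1% of replicates passing that level; inconclusive = only one of the two criteria is met; inactive = neither criterion is met.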

This assay relates to Voltage-dependent L-type calcium channel subunit alpha-1D (CaV1.3) ICDI/IQ interaction. The assay can be described thus: Primary screen for inhibitors of IQ motif and Ca2+-dependent inactivation inhibitor domain binding in CACNA1D, Förster resonance energy transfer in living cells, single-concentration test (AID 743397).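 Note: 0% = median of the neutral control wells.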 As to conditions: HEK cells, CFP/YFP FRET ICDI-IQ, plate reader, 10 min; at 12.3 µM; stronger effect = higher value; percent FRET-ratio fall versus neutral wells.
With `O=[N+]([O-])c1ccc(-c2cc([N+](=O)[O-])c(O)c([N+](=O)[O-])c2)cc1`, the inhibition (commonly the relative decrease from the control value, in per cent) was inactive: -17.2%.

For the compound `Cc1ccc(OP(=O)(Nc2ccc([N+](=O)[O-])cn2)Oc2ccc(C)cc2)cc1`, the inhibition was inactive: -4.5%.

For `[N-]=[N+]=NC1CCCCC1NC(=O)c1cc([N+](=O)[O-])cc([N+](=O)[O-])c1` (stereo unspecified), the inhibition was inactive: -5.73%.

For `Cc1ccc2nc3c(c(C)c2c1)CC(C(Cl)Cl)S3` (stereo unspecified), the inhibition is inactive: -7.48%.

`CCOC(=O)Nc1cccc([As](=O)(O)O)c1`: the inhibition is inactive: -20.4%.

Regarding `Cc1cc(SC(NC=O)C(Cl)(Cl)Cl)ncn1` (stereo unspecified), the inhibition is inactive: -16.5%.

In the case of `O=P(Nc1ccccn1)(c1cccc2ccccc12)c1cccc2ccccc12`, the inhibition is inactive: -4.4%.

Consider `O=[N+]([O-])c1ccc(Nc2ccc(Oc3ccc([N+](=O)[O-])cc3[N+](=O)[O-])cc2)c([N+](=O)[O-])c1`, for which the inhibition is inactive: -4.07%.

Turning to `O=C(O)C(O)c1ccc(N(CCCl)CCCl)cc1` (stereo unspecified), the inhibition is inactive: -5.05%.

In the case of `CCOC(=O)Nc1ccc([As](=O)(O)O)c(O)c1`, the inhibition is inactive: -6.17%.

Consider `CC1CCNP(=O)(N(CCCl)CCCl)O1` (stereo unspecified), for which the inhibition is inactive: -16.3%.

For the compound `COP(=O)(OC)N1CC1c1ccccc1` (stereo unspecified), the inhibition was inactive: -10.5%.

In the case of `CCCCOc1ccc(C(=O)NCC2(N3CCCCC3)CCCCC2)cc1OC`, the inhibition was inactive: -2.54%.

As for `Cc1cc(SC(NC(=O)c2ccccc2)C(Cl)(Cl)Cl)nc(C(C)C)n1` (stereo unspecified), the inhibition is inactive: -6.15%.

As for `O=C(OC1CN2CCC1CC2)c1cccc([N+](=O)[O-])c1` (stereo unspecified), the inhibition was inactive: -3.3%.

Regarding `CCOC(=O)c1ccc(NC(=O)C(C)(CCl)SC)cc1` (stereo unspecified), the inhibition is inactive: -4.91%.

Take `CCC(C)N(CC(C)C)C(=S)SC(NC(C)=O)C(Cl)(Cl)Cl` (stereo unspecified): the inhibition was inactive: -5.6%.

On to `COP1(=S)c2c(C)nn(CCC#N)c2N=C(c2ccc(F)cc2)N1C` (stereo unspecified), for which the inhibition was inactive: -8.89%.

Consider `COC(=O)C1(C)COP(=O)(N2CCCC2)OC1` (stereo unspecified), for which the inhibition was inactive: -3.66%.

Take `O=C(O)C(=O)c1ccc(N(CCCl)CCCl)cc1`: the inhibition is inactive: -5.65%.

Regarding `O=C(COc1ccccc1)OC1CN2CCC1CC2` (stereo unspecified), the inhibition is inactive: -2.52%.

Consider `O=C(Nc1ccncc1[N+](=O)[O-])c1ccc([N+](=O)[O-])cc1[N+](=O)[O-]`, for which the inhibition was inactive: -19.2%.

Turning to `COc1ccccc1CNC(=O)COC(=O)C(O)(c1ccccc1)c1ccccc1`, the inhibition is inactive: -5.38%.

For the compound `CN(C(=O)Cc1ccc(Cl)c(Cl)c1)[C@@H]1CCCC[C@H]1N1CCCC1`, the inhibition was inactive: -4.56%.

`CC(C)/C=N\N=C(\N)N[N+](=O)[O-]`: the inhibition is inactive: 3.83%.

On to `CCC1=CC2Cc3nc4ccc(Cl)cc4c(N)c3C(C1)C2` (stereo unspecified), for which the inhibition is inactive: -1.49%.

On to `O=P1(Nc2ccccn2)COc2ccccc2OC1`, for which the inhibition is inactive: -2.41%.

Regarding `CCOP(=O)(NC(=NC(C)c1ccccc1)NC(C)c1ccccc1)OCC` (stereo unspecified), the inhibition is inactive: -2.83%.

With `CN(CCCl)Cc1cc(Cl)c(NC2=NCCN2)c(Cl)c1`, the inhibition was inactive: -5.82%.

Take `CCOP(=O)(Nc1ccc(C)cn1)OCC`: the inhibition is inactive: -4.27%.

Take `Clc1n[nH]nc1-c1nn[nH][15n]1`: the inhibition is inactive: -4.52%.

Take `O=P1(N(CCCl)CCCl)NCCC(C(F)(F)F)O1` (stereo unspecified): the inhibition was inactive: -6.86%.

`CC(C)(C)C(=O)NC(Sc1ncccn1)C(Cl)(Cl)Cl` (stereo unspecified): the inhibition was inactive: -6.96%.

Turning to `Cc1ccc(S(=O)(=O)N(CCCN)CCCc2c(C)nc(N)[nH]c2=O)cc1`, the inhibition was inactive: -4.05%.

Consider `O=P1(Nc2ncccn2)COc2ccccc2OC1`, for which the inhibition was inactive: -4.31%.

For `Nc1cccc([As](=O)(O)c2ccccc2)c1`, the inhibition is inactive: -3.4%.

As for `NS(=O)(=O)c1cccc(NC(=O)COC(=O)C(O)(c2ccccc2)c2ccccc2)c1`, the inhibition was inactive: -11.5%.

Take `O=P1(Nc2ccc(Br)cn2)COc2ccccc2OC1`: the inhibition was inactive: -3.34%.

As for `Cc1ccc(OCC(=O)OC2CN3CCC2CC3)cc1` (stereo unspecified), the inhibition is inactive: -4.71%.

On to `O=[As](O)(c1cccs1)c1cccs1`, for which the inhibition was inactive: -18.5%.

`Cc1nn(-c2ccccc2)c2c1P(=O)(N1CCOCC1)N(C)C(c1ccccc1)=N2` (stereo unspecified): the inhibition is inactive: -7.7%.

Regarding `Cc1ccc(C(=O)OC2CN3CCC2CC3)cc1` (stereo unspecified), the inhibition was inactive: -3.31%.

With `CC1CCC(C(C)C)C(OP(=O)(Nc2ccccn2)c2ccccc2)C1` (stereo unspecified), the inhibition was inactive: -3.98%.

For the compound `CN(C)C1(CNC(=O)c2ccc(S(C)(=O)=O)cc2)CCCCC1`, the inhibition is inactive: -4.74%.

With `O=C(/C=C/c1ccccc1)OC1CN2CCC1CC2` (stereo unspecified), the inhibition was inactive: -4.39%.

Regarding `CCCC1OP(=O)(Nc2ccccc2)OCC1CC` (stereo unspecified), the inhibition was inactive: -9.68%.

Turning to `NC(=O)Nc1ccc([As](=O)(O)O)cc1`, the inhibition was inactive: -6.48%.

For the compound `N#CCCN(C(=O)COC(=O)C(O)(c1ccccc1)c1ccccc1)c1ccc(F)cc1`, the inhibition was inactive: -2.7%.

In the case of `CN(C(=O)Cc1ccccc1)[C@@H]1CC[C@]2(CCCO2)C[C@H]1N1CCCC1`, the inhibition is inactive: -4.64%.

For the compound `CCOP1(=S)c2c(C)nn(CCC#N)c2N=C(c2ccc(F)cc2)N1C` (stereo unspecified), the inhibition is inactive: -7.58%.

Consider `O=[N+]([O-])c1ccc2c(c1)nnn2O`, for which the inhibition was inactive: -9.36%.

For `CN(C(=O)Cc1ccc(Cl)c(Cl)c1)[C@H]1CC[C@@]2(CCCO2)C[C@@H]1N1CCCC1`, the inhibition was inactive: -5.36%.

On to `CCOP1(=S)c2c(C)nn(CCC#N)c2N=C(c2ccccc2F)N1C` (stereo unspecified), for which the inhibition is inactive: -9.56%.

For `O=P(Nc1nccs1)(Oc1ccccc1)Oc1ccccc1`, the inhibition is inactive: -5.49%.

In the case of `O=C(O)COc1ccc([As](=O)(O)O)cc1[N+](=O)[O-]`, the inhibition is inactive: -2.17%.

Turning to `Nc1ccccc1[As](=O)(O)c1ccccc1`, the inhibition was inactive: -15.7%.

`Cc1ccc(NCCc2c([N+](=O)[O-])cc([N+](=O)[O-])cc2[N+](=O)[O-])cc1`: the inhibition was inactive: -7.02%.

Turning to `Nc1cccc2c([As](=O)(O)O)cccc12`, the inhibition was inactive: -5.64%.

For `CCCOP(=S)(Nc1nc(N)cc(=O)[nH]1)OCCC`, the inhibition was inactive: -13.8%.

As to `COc1cc(C2NCCC3(OCCO3)C2(C)C)cc(OC)c1OC` (stereo unspecified), the inhibition is inactive: -9.47%.

As to `CCOP(=O)(Nc1cccc2ccccc12)OCC`, the inhibition was inactive: 14%.

Turning to `O=C(OC1CN2CCC1CC2)c1ccc(Cl)cc1` (stereo unspecified), the inhibition is inactive: -5.32%.

With `COc1cc(C(=O)NCC2(N3CCOCC3)CCCCC2)cc(Cl)c1OC(C)C`, the inhibition was inactive: -4.37%.

With `O=[As](O)(O)c1cccnc1`, the inhibition is inactive: -12.6%.

With `CS(=O)(=O)c1ccc(Cl)c(NC(=O)COC(=O)C(O)(c2ccccc2)c2ccccc2)c1`, the inhibition is inactive: -5.05%.

On to `O=[As](O)(c1cccc(O)c1)c1cccc(O)c1`, for which the inhibition is inactive: -15%.
